The target of assay [1] is Amine oxidase [flavin-containing] B (Homo sapiens, UniProt P27338).
The species entered for another assay is Homo sapiens. The assay is described as follows: Selectivity index, ratio of inhibition of human recombinant MAO-A at 20 uM or 50 uM to IC50 for human recombinant MAO-B.

Protein sequences, listed by entry. Tags and fused reporters are not part of them.
UniProt P27338, whole entry: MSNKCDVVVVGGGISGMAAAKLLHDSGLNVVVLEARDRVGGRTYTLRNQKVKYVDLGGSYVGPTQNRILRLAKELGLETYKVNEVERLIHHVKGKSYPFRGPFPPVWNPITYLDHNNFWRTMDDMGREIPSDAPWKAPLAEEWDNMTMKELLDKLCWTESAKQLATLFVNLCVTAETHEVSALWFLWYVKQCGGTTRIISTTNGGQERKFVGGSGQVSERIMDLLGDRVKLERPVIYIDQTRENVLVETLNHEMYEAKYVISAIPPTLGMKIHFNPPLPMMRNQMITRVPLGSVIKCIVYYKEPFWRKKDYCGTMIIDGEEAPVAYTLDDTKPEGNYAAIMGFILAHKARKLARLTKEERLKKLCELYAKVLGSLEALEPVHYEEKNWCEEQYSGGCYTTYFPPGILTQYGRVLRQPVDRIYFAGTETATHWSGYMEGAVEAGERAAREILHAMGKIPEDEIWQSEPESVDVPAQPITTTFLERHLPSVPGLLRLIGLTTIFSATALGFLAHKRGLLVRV

Some results are limits rather than exact numbers.

As for `COc1ccc(C(=O)/C=C/c2ccc(Cl)cc2)c(O)c1`, the IC50 (commonly the concentration that inhibits the measured activity by half) in assay [1] turned out to be 4.4 nM. The Ratio IC50 in the assay filed under Homo sapiens is above 11400.

Source of the values: ChEMBL document CHEMBL1138489, “Chalcones: a valid scaffold for monoamine oxidases inhibitors” (J Med Chem, 2009).
